Assay results taken from patent US6649595B2, “Regulation of biological events using novel compounds” (ARIAD Gene Therapeutics, Inc., priority 1995, dated 2003).

By UniProt entry, the sequences of proteins in these tests, tags left out.
UniProt P62942, whole entry: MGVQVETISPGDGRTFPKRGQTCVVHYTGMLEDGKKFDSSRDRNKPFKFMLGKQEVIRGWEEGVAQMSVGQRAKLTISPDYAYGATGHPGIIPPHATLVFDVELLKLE

Molecular target: T1, FKBPwt (Homo sapiens, UniProt P62942)
T1 construct: made in house
Experiment: Competitive fluorescence polarization (FP) binding assay of rapalogs to FKBP
Details: =IC50/IC50 of rapamycin; C24 analogs, Table 4

`CON=C1CC(C(C)CC2CCC(O)C(OC)C2)OC(=O)C2CCCCN2C(=O)C(=O)C2(O)OC(CCC2C)CC(OC)C(C)=CC=CC=CC(C)CC(C)C(=O)C(OC)C(O)C(C)=CC1C` (single isomer, unassigned) [Compound 5, Rapamycin (E and Z)-24-(O-methyloxime)] was tested, and the “fold loss in affinity (vs rapamycin)” value was 616.
